Test results from US20220023273A1, “METHODS FOR TREATING SYMPTOMS AND DISORDERS ASSOCIATED WITH LYSOSOMAL STORAGE DISEASES” (GENZYME CORPORATION, priority 2019, published 2022).

How the values were obtained:
Format in all cases: in vivo, human
[1] = tested on: plasma GL-1, GL-3, and GM3; test: Phase 1 Study 2: pharmacodynamics; settings: Day 15, healthy adults
Description: The study enrolled and randomized 36 healthy adults (19 men and 17 women) (n=9 each to group).
Pharmacodynamic endpoints (plasma GL-1, GL-3, and GM3 concentrations) were assessed on Days 1-5, 8, 11, 13, and 14, at 0 hours […]; and on Day 15, at 24 hours after the Day 14 dose.

[2] = Phase 1 Study 1 Part 1: ascending single-dose pharmacokinetics; settings: 75-fold dose increase (2 to 150 mg), single oral
Source text: (§1) Study 1 was a 2-part single-center trial in healthy adult male volunteers. Part 1 was a double-blind, randomized, placebo-controlled sequential ascending single-dose study of Compound 2 for safety, tolerability, and PK. Part 2 was an open-label, single-cohort, randomized, 2-sequence, 2-period, 2-treatment crossover study of Compound 2 for PK with and without a high-fat meal.
Part 1 of the study enrolled and randomized 55 healthy men (placebo, n=14; 2-, 5-, 15, 25-, 50, and 100-mg doses, n=6 each; 150-mg dose, n=5). Eight healthy men participated in Part 2.
(§2) In Part 1 the subjects were randomized to receive 2, 5, 15, 25, 50, 100, or 150 mg of Compound 2 (L-malic salt form) or matching placebo on the morning of the first day after at least a 10-hour fast. In Part 2, the subjects were randomized to receive a single oral dose of 5 mg Compound 2 either while fasting (at least 10 hours before and 4 hours after administration) or 30 minutes after a standardized high-fat breakfast (˜815 kcal). After a 7-day washout period, participants were crossed over to the other condition.
In Study 1, Part 1, blood was sampled for plasma concentrations of Compound 2 at the time of study drug administration (0 hour) and 0.5, 1, 2, 3, 4, 5, 6, 8, 10, 12, 16, 24, 48, 72, and 96 hours post-dose. Urine samples were collected for analysis of Compound 2 concentrations beginning 2 hours before study drug administration through 48 hours afterward.

[3] = Phase 1 Study 1 Part 2: PK with and without a high-fat meal; settings: healthy men, single oral 5 mg
Description: as §1, §2
In Study 1, Part 2, blood was sampled for plasma concentrations if Compound 2 at 0, 0.5, 1, 2, 3, 4, 5, 6, 8, 10, 12, 16, 24, and 48 hours post-dose.

[4] = Phase 1 Study 2: ascending repeated-dose pharmacokinetics
[5] = 4-fold dose increase (5-20 mg), Day 14

## CC(C)(NC(=O)O[C@@H]1CN2CCC1CC2)c1csc(-c2ccc(F)cc2)n1 [Compound 2, (S)-quinuclidin-3-yl (2-(2-(4-fluorophenyl)thiazol-4-yl)propan-2-yl)carbamate]
[1]; 5 mg once daily 14 days
  GL-1, point estimate of treatment ratio vs placebo: 0.39
  GL-3, point estimate of treatment ratio vs placebo: 0.61
  GM3, point estimate of treatment ratio vs placebo: 0.56
[1]; 10 mg once daily 14 days
  GL-1, point estimate of treatment ratio vs placebo: 0.32
  GL-3, point estimate of treatment ratio vs placebo: 0.69
  GM3, point estimate of treatment ratio vs placebo: 0.49
[1]; 20 mg once daily 14 days
  GL-1, point estimate of treatment ratio vs placebo: 0.23
  GL-3, point estimate of treatment ratio vs placebo: 0.67
  GM3, point estimate of treatment ratio vs placebo: 0.40
[2]
  fold increase in geometric mean AUCinf: 85.9 fold
  fold increase in geometric mean AUClast: 89.2 fold
  fold increase in geometric mean Cmax: 97.3 fold
[3]
  Fed/fasted geometric mean ratio, AUClast: 0.91
  Fed/fasted geometric mean ratio, Cmax: 0.92
[4]; [5]
  fold increase in geometric mean AUC0-24: 3.69 fold
  fold increase in geometric mean Cmax: 3.76 fold
[4]; after 14 once-daily doses, 5-20 mg
  fold CLR lower than observed plasma CL/F: 3.18-3.86 fold
